The chains behind the UniProt entries cited, without tags or fusion partners.
UniProt P50172, whole entry: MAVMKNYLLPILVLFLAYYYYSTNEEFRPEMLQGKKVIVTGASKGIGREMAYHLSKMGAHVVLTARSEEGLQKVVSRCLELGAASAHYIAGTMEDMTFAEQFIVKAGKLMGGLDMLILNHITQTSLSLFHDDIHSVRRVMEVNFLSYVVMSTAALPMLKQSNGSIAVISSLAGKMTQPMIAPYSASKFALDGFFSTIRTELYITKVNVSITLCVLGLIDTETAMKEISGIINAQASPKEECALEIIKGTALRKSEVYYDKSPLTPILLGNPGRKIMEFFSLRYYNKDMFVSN
UniProt P80365, whole entry: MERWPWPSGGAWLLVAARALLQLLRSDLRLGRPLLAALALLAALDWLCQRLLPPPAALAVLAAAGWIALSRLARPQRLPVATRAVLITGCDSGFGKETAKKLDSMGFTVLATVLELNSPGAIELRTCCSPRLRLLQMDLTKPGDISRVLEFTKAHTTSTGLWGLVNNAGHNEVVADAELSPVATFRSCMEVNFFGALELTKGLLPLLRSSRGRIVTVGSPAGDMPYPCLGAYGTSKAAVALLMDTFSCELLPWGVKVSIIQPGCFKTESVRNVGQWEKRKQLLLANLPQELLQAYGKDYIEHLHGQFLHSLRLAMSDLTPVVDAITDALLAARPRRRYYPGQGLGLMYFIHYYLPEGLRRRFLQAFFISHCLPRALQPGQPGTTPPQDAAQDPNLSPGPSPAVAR
UniProt P28845, whole entry: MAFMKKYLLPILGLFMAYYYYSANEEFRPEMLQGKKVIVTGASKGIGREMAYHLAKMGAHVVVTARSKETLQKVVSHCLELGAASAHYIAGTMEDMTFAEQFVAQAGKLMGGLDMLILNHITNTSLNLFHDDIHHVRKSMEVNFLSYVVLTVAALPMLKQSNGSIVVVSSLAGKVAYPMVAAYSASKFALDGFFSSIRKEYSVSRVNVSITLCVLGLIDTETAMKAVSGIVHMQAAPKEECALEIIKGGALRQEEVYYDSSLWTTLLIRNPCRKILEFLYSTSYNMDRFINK

According to patent publication US7968601B2, “Adamantyl acetamides as 11-β hydroxysteroid dehydrogenase inhibitors” (Janssen Pharmaceutica N.V., priority 2002, dated 2011):

Legend:
11b-HSD1 [1] = target: 11b-HSD1 (Mus musculus, UniProt P50172); experiment: Cellular assay, 11b-HSD1 activity in differentiated 3T3-L1 cells; conditions: 4 hour pre-incubation, pIC50 scored 1-3
11b-HSD2 [2] = target: T1, 11b-HSD2 (Homo sapiens, UniProt P80365); experiment: Cellular assay, 11b-HSD2 activity in HepG2 cells; conditions: 4 hour pre-incubation, pIC50 scored 1-3
11b-HSD1 [3] = target: 11b-HSD1 (Homo sapiens, UniProt P28845); experiment: Enzymatic assay, 11b-HSD1 reductase activity (conversion of cortisone into cortisol); conditions: pIC50 scored 1-3
11b-HSD2 [4] = target: T1, 11b-HSD2; experiment: Enzymatic assay, 11b-HSD2 dependent dehydrogenase activity; conditions: 11b-HSD2 dehydrogenase activity, pIC50 scored 1-3

CC(C(=O)NC1C2CC3CC(C2)CC1C3)c1ccc([N+](=O)[O-])cc1 (stereo not shown)
[C2] HSD1 cellular 3T3-L1 Score (11b-HSD1 [1]): 2 (Score 2=pIC50 value in the range of 5 to 6) | [C2] HSD2 cellular HepG2 Score (11b-HSD2 [2]): 1 (Score 1=pIC50 value<5) | [C1] HSD1-prot Reduct Score (11b-HSD1 [3]): 2 (Score 2=pIC50 value in the range of 5 to 6) | [C1] HSD2 prot Dehydro Score (11b-HSD2 [4]): 1 (Score 1=pIC50 value<5)
